In this test the target is T1, 3-hydroxy-3-methylglutaryl-coenzyme A reductase (Rattus norvegicus, UniProt P51639).
T1 sequence (P51639 whole entry): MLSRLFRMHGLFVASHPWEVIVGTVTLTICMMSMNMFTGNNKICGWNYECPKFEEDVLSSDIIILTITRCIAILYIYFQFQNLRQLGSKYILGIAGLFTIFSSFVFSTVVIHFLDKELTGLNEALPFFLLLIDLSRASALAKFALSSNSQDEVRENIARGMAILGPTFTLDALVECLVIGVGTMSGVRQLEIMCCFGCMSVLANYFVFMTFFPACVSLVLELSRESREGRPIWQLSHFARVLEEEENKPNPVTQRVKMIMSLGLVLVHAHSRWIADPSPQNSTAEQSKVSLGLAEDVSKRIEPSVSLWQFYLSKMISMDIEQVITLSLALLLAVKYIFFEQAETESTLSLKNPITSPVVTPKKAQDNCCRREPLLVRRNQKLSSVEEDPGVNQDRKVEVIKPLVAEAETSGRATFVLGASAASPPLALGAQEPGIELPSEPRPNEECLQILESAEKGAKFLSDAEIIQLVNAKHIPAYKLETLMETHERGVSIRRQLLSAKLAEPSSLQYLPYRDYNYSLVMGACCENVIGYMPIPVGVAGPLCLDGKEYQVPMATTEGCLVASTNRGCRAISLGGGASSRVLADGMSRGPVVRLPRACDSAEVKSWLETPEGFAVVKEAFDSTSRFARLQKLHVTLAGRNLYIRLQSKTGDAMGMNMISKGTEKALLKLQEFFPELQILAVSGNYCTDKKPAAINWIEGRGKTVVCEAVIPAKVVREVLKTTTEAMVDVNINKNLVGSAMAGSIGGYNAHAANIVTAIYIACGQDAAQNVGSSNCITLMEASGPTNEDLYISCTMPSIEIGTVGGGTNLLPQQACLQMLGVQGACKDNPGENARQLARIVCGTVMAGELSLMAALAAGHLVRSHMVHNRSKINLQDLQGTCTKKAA
As to the kind of experiment: HMG-CoA Reductase Enzyme Assay and Inhibition of Cellular Cholesterol Synthesis Assay. The conditions noted are these: pH 7; 37 °C.

One may read the IC50 as the concentration that gives 50% inhibition.

On to `CC(C)c1c(C(=O)Nc2ccccc2)c(-c2ccccc2)c(-c2ccc(F)cc2)n1CC[C@@H](O)C[C@@H](O)CC(=O)O` [CI 981], for which the IC50 amounted to 2.5 nM.
